From paper PMC7723054
The list shows a part of the results.

Tests used:
Assay in all cases: FOREST: bead pull-down of RNA structure library v1, barcode microarray; U1A/LIN28A: 20 mM HEPES pH 7.5, 80 mM KCl, 20 mM NaCl, 10% glycerol, 2 mM DTT, 0.1 ug/uL BSA, 4 C; BG4/CIRBP/DHX36: 10 mM Tris-HCl pH 7.5, 100 mM KCl (or LiCl),; high values mean tight binding
LIN28A = target: T1, LIN28A (human?, UniProt Q9H9Z2 1-209)
T1 sequence: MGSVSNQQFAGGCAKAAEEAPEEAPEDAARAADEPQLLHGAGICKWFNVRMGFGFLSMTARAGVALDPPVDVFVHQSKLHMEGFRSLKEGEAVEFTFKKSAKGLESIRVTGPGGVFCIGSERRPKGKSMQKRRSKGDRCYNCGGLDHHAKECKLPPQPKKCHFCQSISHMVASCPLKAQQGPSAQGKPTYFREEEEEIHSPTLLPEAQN

CIRBP = target: T2, CIRBP (Homo sapiens, UniProt Q14011 1-172)
T2 sequence: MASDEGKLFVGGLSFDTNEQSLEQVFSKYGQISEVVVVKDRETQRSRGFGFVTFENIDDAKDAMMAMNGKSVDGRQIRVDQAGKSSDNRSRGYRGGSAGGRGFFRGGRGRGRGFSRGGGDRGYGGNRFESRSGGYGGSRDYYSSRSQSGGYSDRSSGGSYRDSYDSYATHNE

DHX36 = target: T3, DHX36 (Homo sapiens, UniProt Q9H2U1 1-1008)
T3 sequence: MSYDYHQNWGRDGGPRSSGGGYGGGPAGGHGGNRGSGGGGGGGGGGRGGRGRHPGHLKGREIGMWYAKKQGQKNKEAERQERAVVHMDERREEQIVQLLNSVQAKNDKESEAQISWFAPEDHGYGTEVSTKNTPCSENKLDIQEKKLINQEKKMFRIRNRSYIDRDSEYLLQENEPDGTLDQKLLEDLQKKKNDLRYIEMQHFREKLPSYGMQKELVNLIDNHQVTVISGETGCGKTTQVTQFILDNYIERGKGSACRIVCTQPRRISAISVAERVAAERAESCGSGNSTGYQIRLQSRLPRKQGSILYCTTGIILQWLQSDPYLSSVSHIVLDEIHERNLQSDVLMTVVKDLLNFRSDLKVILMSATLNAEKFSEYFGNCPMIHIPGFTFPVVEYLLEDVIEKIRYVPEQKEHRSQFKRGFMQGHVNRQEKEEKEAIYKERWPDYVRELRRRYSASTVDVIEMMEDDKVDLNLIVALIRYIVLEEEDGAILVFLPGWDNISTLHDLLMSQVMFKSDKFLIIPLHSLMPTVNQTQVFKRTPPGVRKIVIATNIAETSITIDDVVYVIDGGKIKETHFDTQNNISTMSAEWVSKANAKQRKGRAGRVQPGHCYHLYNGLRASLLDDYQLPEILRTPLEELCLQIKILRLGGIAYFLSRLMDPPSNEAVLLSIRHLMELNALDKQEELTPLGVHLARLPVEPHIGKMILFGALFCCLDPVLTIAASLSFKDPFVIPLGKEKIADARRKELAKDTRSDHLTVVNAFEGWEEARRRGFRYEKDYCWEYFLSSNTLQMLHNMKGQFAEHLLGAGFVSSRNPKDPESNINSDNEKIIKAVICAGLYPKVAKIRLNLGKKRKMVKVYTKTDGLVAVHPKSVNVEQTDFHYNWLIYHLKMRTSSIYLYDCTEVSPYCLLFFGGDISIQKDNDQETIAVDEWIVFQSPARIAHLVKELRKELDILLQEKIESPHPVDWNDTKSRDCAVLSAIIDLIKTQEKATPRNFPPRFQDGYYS

B1: hsa-mir-4421 (structured_RNA)
RNA: GGGAAAUCCUGCCGUGAGUUAGCCACUCGGUGUACGAAGUUUCAGCAGUUGAACACUUGUUGGGACAACCUGCUGAAGCUUCGUGCAC
LIN28A
  binding signal: -1.15 z-score
CIRBP
  binding signal: -1.03 z-score
DHX36
  binding signal: -0.429 z-score

B2: hsa-mir-1179 (structured_RNA)
RNA: GGGAACGUGCUCCAGGACUAUCCCCAUAGGUGUACGAAGUUUCAGCUUGGUGUGUAUUGCCUUGUCAAGCUGAAGCUUCGUGCAC
LIN28A
  binding signal: -1.15 z-score
CIRBP
  binding signal: -1.72 z-score
DHX36
  binding signal: -1.56 z-score

B3: hsa-mir-4756 (structured_RNA)
RNA: GGGAAAAGUGCGGGUUGUCUAUGCAACCGGUGUACGAAGUUUCAGCCUGCUGCCGAUUCUGCACCAGGCUGAAGCUUCGUGCAC
LIN28A
  binding signal: -1.16 z-score
CIRBP
  binding signal: -0.928 z-score
DHX36
  binding signal: -0.485 z-score

B4: hsa-mir-100 (structured_RNA)
RNA: GGGAAGCGCCCCAACCGAUACAUAUAUCGGUGUACGAAGUUUCAGCCUUGUGGUAUUAGUCCGCACAAGGCUGAAGCUUCGUGCAC
LIN28A
  binding signal: -1.16 z-score
CIRBP
  binding signal: -2.33 z-score
DHX36
  binding signal: -1.07 z-score

B5: hsa-mir-216a (structured_RNA)
RNA: GGGAGCAGAAGCAAAUGGUUAACUGUAUGGUGUACGAAGUUUCAGCGUGAGAUGUUCAUACAAUCCCUCACGCUGAAGCUUCGUGCAC
LIN28A
  binding signal: -1.16 z-score
CIRBP
  binding signal: -0.646 z-score
DHX36
  binding signal: -0.818 z-score

B6: hsa-mir-4736 (structured_RNA)
RNA: GGGAAGUUGCGGUUGCCCGUUAAGAUACGGUGUACGAAGUUUCAGCGCUGCCAUCUCCCACUGGCUGCGCUGAAGCUUCGUGCAC
LIN28A
  binding signal: -1.16 z-score
CIRBP
  binding signal: -0.633 z-score
DHX36
  binding signal: -0.665 z-score

B7: hsa-mir-4432 (structured_RNA)
RNA: GGGACAUACCCAUGGGUAACCCAGGAUUGGUGUACGAAGUUUCAGCCGUUCCAAUGCGACACCUCUAGAGUGUCAUCCCCUAGAAUGUCACCUUGGAAAGGCUGAAGCUUCGUGCAC
LIN28A
  binding signal: -1.17 z-score
CIRBP
  binding signal: -0.343 z-score
DHX36
  binding signal: -0.312 z-score

B8: hsa-mir-4470 (structured_RNA)
RNA: GGGACGACACUAGGGUUAAUCGAACCGCGGUGUACGAAGUUUCAGCGUCUCGGUCCUUUGGAACGUGGCGCUGAAGCUUCGUGCAC
LIN28A
  binding signal: -1.18 z-score
CIRBP
  binding signal: -1.28 z-score
DHX36
  binding signal: -0.755 z-score

B9: hsa-mir-553 (structured_RNA)
RNA: GGGAUAUGUACCCGGUGUCGAAUAUCAAGGUGUACGAAGUUUCAGCUUUUGUCUGAGCUGAAGCUUCGUGCAC
LIN28A
  binding signal: -1.18 z-score
CIRBP
  binding signal: 0.499 z-score
DHX36
  binding signal: -1.52 z-score

B10: hsa-mir-4773-2 (structured_RNA)
RNA: GGGAAAAUUAUGCCCGCACGACUUCGCUGGUGUACGAAGUUUCAGCUCUGCUUUGAUGAAAUAAAGCAGAGCUGAAGCUUCGUGCAC
LIN28A
  binding signal: -1.18 z-score
CIRBP
  binding signal: -0.966 z-score
DHX36
  binding signal: -0.488 z-score

B11: hsa-mir-4721 (structured_RNA)
RNA: GGGAACCAGGACCGCCCUCAUACACUAAGGUGUACGAAGUUUCAGCCCAUCAAGCCCCACCAGAAGGUGGAGGCCCAGGUGAGGCUGAAGCUUCGUGCAC
LIN28A
  binding signal: -1.19 z-score
CIRBP
  binding signal: -1.17 z-score
DHX36
  binding signal: -0.332 z-score

B12: hsa-mir-492 (structured_RNA)
RNA: GGGACCAACCAGAGCGGAACUCUCUAGAGGUGUACGAAGUUUCAGCUCUUGGUGCCACCAUUGAGAACGCCAGGAGCUGAAGCUUCGUGCAC
LIN28A
  binding signal: -1.19 z-score
CIRBP
  binding signal: -0.177 z-score
DHX36
  binding signal: -1.02 z-score

B13: hsa-mir-3674 (structured_RNA)
RNA: GGGAACGGCAUCCCGCCAUAUGUGAUUCGGUGUACGAAGUUUCAGCGGCCGUUUGAGAUGUCCGCUGAAGCUUCGUGCAC
LIN28A
  binding signal: -1.19 z-score
CIRBP
  binding signal: -0.979 z-score
DHX36
  binding signal: -0.00189 z-score
